The list shows a part of the results, in another mix than the full data. Calls of active or inactive are those of the source.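 Rule for the calls: active = activation at or above 40% of the spot to cytoplasm intensity ratio, with at least 20 cells analyzed; inconclusive = wells under 20 cells, flagged as cytotoxic or low count; inactive = the rest.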
Target: Neurotensin receptor type 1 (Homo sapiens) (UniProt P30989)
Test: NTR1-driven beta-arrestin-GFP spot formation – imaging, U2OS cells, high content, primary screen (AID 493036) (AID 493036);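 note: 0% = DMSO without peptide and 100% = 100 nM NTR1 peptide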
Conditions: agonist mode, at 20 µM, active compounds read high

Amino acid sequences for entries named in this document (tags omitted).
UniProt P30989, whole entry: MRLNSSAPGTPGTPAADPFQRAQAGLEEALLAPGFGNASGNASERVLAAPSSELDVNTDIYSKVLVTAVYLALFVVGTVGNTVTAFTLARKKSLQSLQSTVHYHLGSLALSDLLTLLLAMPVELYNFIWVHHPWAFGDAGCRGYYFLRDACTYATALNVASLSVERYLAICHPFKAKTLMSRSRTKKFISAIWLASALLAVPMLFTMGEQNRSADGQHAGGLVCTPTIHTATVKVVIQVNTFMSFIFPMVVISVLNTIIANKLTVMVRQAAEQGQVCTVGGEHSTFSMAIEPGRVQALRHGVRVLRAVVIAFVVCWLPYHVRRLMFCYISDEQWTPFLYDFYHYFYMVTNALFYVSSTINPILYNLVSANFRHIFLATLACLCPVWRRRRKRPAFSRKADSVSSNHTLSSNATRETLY

SMILES	activation
CCC(=O)N(c1ccccc1)C1(COC)CCN(CCc2cccs2)CC1	inactive: -1.5%
CCC(=O)N(c1ccccc1)C1(COC)CCN(CCn2nnn(CC)c2=O)CC1	inactive: 1.7%

— PubChem BioAssay AID493036 (Sanford-Burnham Center for Chemical Genomics, 2011)
